Assay results taken from PubChem BioAssay AID720711 (National Center for Advancing Translational Sciences (NCATS), 2013).
The campaign covered roughly 360,000 compounds. About 290 (0.081%) were called active. All entries are inconclusive by the source's own rule. Clear calls are listed elsewhere. The call rests on the fitted dose curve; in most records, active means well fitted activation curve with a large enough effect; inconclusive means small, poorly fitted or top-dose-only effect; inactive means no such curve, though single readings can be large or run the other way.

By UniProt entry, the sequences of proteins in these tests, tags left out. Where a name states a change or a piece, a line headed by the entry shows the natural chain unless it says otherwise.
UniProt Q8WZA2: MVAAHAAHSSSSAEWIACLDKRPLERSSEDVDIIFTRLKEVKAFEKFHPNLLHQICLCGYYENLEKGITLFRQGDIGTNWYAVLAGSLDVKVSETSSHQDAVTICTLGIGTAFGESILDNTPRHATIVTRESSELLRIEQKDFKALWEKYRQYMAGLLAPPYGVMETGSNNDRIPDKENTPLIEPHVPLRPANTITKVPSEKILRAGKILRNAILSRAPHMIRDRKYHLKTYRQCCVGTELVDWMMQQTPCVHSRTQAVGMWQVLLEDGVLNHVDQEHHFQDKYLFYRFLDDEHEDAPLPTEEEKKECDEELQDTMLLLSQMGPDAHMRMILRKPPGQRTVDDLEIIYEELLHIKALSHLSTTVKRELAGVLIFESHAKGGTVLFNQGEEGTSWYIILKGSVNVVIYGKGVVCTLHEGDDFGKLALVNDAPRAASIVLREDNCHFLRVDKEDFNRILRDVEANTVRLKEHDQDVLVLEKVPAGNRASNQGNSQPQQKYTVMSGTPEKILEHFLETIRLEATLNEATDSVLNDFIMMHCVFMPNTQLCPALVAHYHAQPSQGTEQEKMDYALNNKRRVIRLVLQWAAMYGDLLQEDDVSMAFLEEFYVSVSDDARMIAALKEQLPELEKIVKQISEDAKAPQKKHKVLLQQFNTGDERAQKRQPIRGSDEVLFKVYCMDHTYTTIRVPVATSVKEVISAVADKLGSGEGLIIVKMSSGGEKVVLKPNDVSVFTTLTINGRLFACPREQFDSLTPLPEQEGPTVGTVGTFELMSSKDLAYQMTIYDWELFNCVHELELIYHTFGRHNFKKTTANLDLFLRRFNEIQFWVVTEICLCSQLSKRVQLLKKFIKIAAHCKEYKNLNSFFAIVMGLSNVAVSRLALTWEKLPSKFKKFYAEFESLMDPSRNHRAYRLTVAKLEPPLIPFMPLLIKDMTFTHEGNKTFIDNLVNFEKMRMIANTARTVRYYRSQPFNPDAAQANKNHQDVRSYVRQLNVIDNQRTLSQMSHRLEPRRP

These molecules were tested against Rap guanine nucleotide exchange factor 4 (Homo sapiens) (UniProt Q8WZA2) (assay: qHTS for Agonist of cAMP-regulated guanine nucleotide exchange factor 4 (EPAC2): primary screen). Conditions: biochemical qHTS, 100% = 6.5 mM cAMP response; at 15.6 µM (top of the series).
Excerpt: In multi-cellular eukaryotic organisms, the effects of cAMP are transduced by two ubiquitously-expressed intracellular cAMP receptors, the classic protein kinase A/cAMP-dependent protein kinase (PKA/cAPK) and the more recently discovered exchange protein directly activated by cAMP/cAMP-regulated guanine nucleotide exchange factor (EPAC/cAMP-GEF). Both PKA and EPAC are ubiquitously expressed in all tissues, and an increase in intracellular cAMP levels will lead to the activation of both PKA and EPAC. […]
This qHTS will be used to screen the Molecular Libraries Small Molecule Repository (MLSMR) as a concentration-titration series using the NCGC unique quantitative screening (qHTS) platform to find activators for EPAC2. […] Activators are identified by monitoring the change in fluorescence signal as the exchanged free BODIPY-GDP has a reduced fluorescence compared to Rap1-bound BODIPY-GDP. […]
Briefly, three uL of reagents (100 nM EPAC2, 250 nM RAP1B-BODIPY-GDP, 50 uM GDP) were dispensed into a 1536-well Greiner black solid-bottom medium binding assay plate. […] The assay plates were read at 5 minute intervals for 30 minutes in the ViewLux plate reader using 480nm excitation and 540nm emission filters. […]
Further: nearly all actives have a fitted effect of over 50% in size.

Row | SMILES | activation
1 | O=P(Nc1nccs1)(c1ccccc1)c1ccccc1 | inconclusive: 36%
